Earlier results, collected in patent US20200216492A1, “USE OF C-TERMINALLY EXTENDED PEPTIDES TO DISRUPT INHIBITOR NK CELL RECEPTOR INTERACTIONS WITH MHC I” (La Jolla Institute for Allergy and Immunology, priority 2016, published 2020).

Biological target: TCR DMF5
Conditions: peptide presented by HLA-A2*02:01, read-out: TCR affinity KD; cited from earlier work

For AAGIGILTV, the Kd is given as 40 µM.
